miR-21 FLuc: miR-21 reporter, rising signal | HeLa miR-21 FLuc reporter, luciferase, 48 h | Potency, µM (top dose mostly 38.3 µM) | 340,000 tested, under 10 active | AID 2288; active = well fitted rising curve with a large enough effect; inconclusive = small, poorly fitted or top-dose-only effect; inactive = no such curve, though single readings can be large or run the other way;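 note: miR-21 action dims this reporter so a rising signal means less miR-21 action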
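HeLa miR-21-FLuc reporter line, endogenous miR-21; 2000 cells/well in DMEM/10% FBS; compound titration up to ~40uM final, 48 h, 37 degree Celsius; luciferase detection reagent, 15 min lysis, CCD luminescence.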
Nrf2 activator: Nrf2 pathway activation | Potency, µM (highest dose often 46.1 µM), hits mostly activators | AREc32 ARE-luciferase reporter (MCF7-derived line), luminescence, 24 h | 0.31% of 410,000 active; also: nearly all actives have a fitted effect of over 65% in size
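Luciferase luminescence (Steady-Glo, 30 min at room temperature) served as the read-out of ARE activation in AREc32 cells treated with compounds for 24 hr at 37 deg C.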
Nrf2 block: Nrf2 pathway inhibition; AID 504444; 2.1% of 360,000 active; A549 ARE-Fluc reporter, luciferase luminescence, 18-24 h; Potency, µM (highest dose often 46 µM), actives largely listed as inhibitors; also: nearly all actives have a fitted effect of over 60% in size
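A549 ARE_Fluc cells (5000/well, 5% FBS OPTI-MEM) pre-incubated 2 h, then treated with compounds 18-24 h at 37C/5% CO2 in concentration-response. CellTiter-Fluor viability read first; BugLite luciferase luminescence after 15 min at room temperature gives Nrf2 activity.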
TCR act: T cell receptor activation | primary human leukocytes, anti-CD3, IL-2 HTRF, 48 h | Potency, µM (series often up to 9.22 µM), usual class: activators | 330,000 tested, under 10 active | AID 504894
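Primary human leukocytes incubated 48 hr with anti-CD3 beads plus compound, without co-stimulation. Secreted IL-2 measured by HTRF (europium cryptate/d2 anti-IL-2 pair, 320 nm excitation, 665 nm emission).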
ClpP mod: qHTS Assay for Activators of ClpP; Potency, µM (top dose mostly 57.5 µM); purified B. subtilis ClpP, FRET peptide cleavage, 20 min; 1.9% of 340,000 active; active = well fitted falling curve with a large enough effect; inconclusive = small, poorly fitted or top-dose-only effect; inactive = no such curve, though single readings can be large or run the other way; also: the source files actives as falling curves though it sought activators and does not explain the sign; nearly all actives have a fitted effect of over 65% in size
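ClpP 10 microg/mL final, pH 8 Tris/KCl buffer with BSA, glycerol, Tween-20; compound pinned in; FRET-FV substrate; RT 20 min; Ex320/Em430; ΔFRET vs ADEP 5.8 microM, DMSO, no enzyme.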
A549 tox-1: kills or reduces viability of A549 cells in Nrf2 counter-screen | 0.16% of 390,000 active | Potency, µM (top dose mostly 46 µM), most hits filed as inhibitors | A549 ARE-Fluc cells, CellTiter-Fluor viability, 18-24 h
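A549 ARE_Fluc cells in 5% FBS OPTI-MEM were exposed to compounds in concentration-response for 18-24 h at 37 deg C. Viability was read by CellTiter-Fluor fluorescence (Ex 405/Em 525) after 30 min, before the luciferase read.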
FLuc counter 3: firefly luciferase inhibition, Nrf2 hit validation | shares compounds with Nrf2 block | purified firefly luciferase, luminescence inhibition | Potency, µM (doses to about 57.5 µM), hits mostly inhibitors | 4% of 1,400 active; also: nearly all actives have a fitted effect of over 65% in size
A549 tox-2: A549 cytotoxicity, Nrf2 inhibitor counterscreen | shares compounds with Nrf2 block | A549 ARE-Fluc cells, cytotoxicity counterscreen | Potency, µM (series often up to 46.1 µM), hits mostly inhibitors | 2% of 1,400 active | AID 720523;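 also: cells exposed to compounds for 18 to 24 hours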
ARE-Fluc inh: reduces Nrf2 ARE reporter signal in A549 cells; shares compounds with Nrf2 block; A549 ARE-firefly luciferase reporter, luminescence; Potency, µM (doses to about 46.1 µM), hits mostly inhibitors; 74% of 1,400 active; AID 720524; also: nearly all actives have a fitted effect of over 65% in size
Large screens that a line does not name were inactive (follow-up assays come after a bar, where shown). Compounds with a hit are over-represented: about 3.7% of the library has one in this group of screens. Unless noted, calls follow the shape of the dose curve; as a rule, active = well fitted curve in the direction sought with a large enough effect; inconclusive = small, poorly fitted or top-dose-only effect, or another doubt; inactive = no such curve, though single readings can be large; an effect the other way counts as inactive or inconclusive.

Cc1cc(C(=O)OCC(=O)N2CC(=O)Nc3ccccc32)c(C)n1-c1ccc(F)cc1	Nrf2 block 9.2µM, A549 tox-1 inconclusive | FLuc counter 3 inactive | A549 tox-2 inactive | ARE-Fluc inh 16.4µM
COc1ccc(S(=O)(=O)NCC(c2ccc3c(c2)OCO3)N2CCN(c3ccccc3)CC2)cc1 (centres undefined)	none (no result: miR-21 FLuc, ClpP mod)
COc1ccc(NS(=O)(=O)c2cc3[nH]c(=O)c(=O)[nH]c3cc2C)cc1Cl	none (no result: TCR act)
COc1ccc(C(=O)Nc2ccc(S(=O)(=O)N3CCOCC3)cc2)cc1	none (no result: miR-21 FLuc)
Cc1ccc(OCCCC(=O)Nc2ccc(Cl)c(S(=O)(=O)N3CCOCC3)c2)cc1	Nrf2 block inconclusive (no result: miR-21 FLuc)
CC(=O)c1ccc(OCCCC(=O)Nc2ccc(Cl)c(S(=O)(=O)N3CCOCC3)c2)cc1	Nrf2 block 5.17µM (no result: miR-21 FLuc, TCR act) | FLuc counter 3 inactive | A549 tox-2 inactive | ARE-Fluc inh 7.31µM
COc1ccc(C(=O)Nc2ccc(Cl)c(S(=O)(=O)N3CCOCC3)c2)cc1	Nrf2 block 9.2µM (not shown: miR-21 FLuc, ClpP mod) | FLuc counter 3 21.3µM | A549 tox-2 inactive
COc1ccc(CCNc2nc3c(-c4cccc(C)c4)nnn3c3ccccc23)cc1OC	none (no result: TCR act)
Cc1cccc(-c2nc3ccccc3n2Cc2ccccc2)c1	Nrf2 block inconclusive, A549 tox-1 inconclusive (no result: TCR act)
CN(C)CCN1C(=O)c2cccc3cc([N+](=O)[O-])cc(c23)C1=O	Nrf2 block 1.64µM, A549 tox-1 8.2µM (no result: miR-21 FLuc) | FLuc counter 3 inactive | A549 tox-2 inconclusive | ARE-Fluc inh 2.59µM
COc1ccc(N(C(C)C(=O)N2CCC(Cc3ccccc3)CC2)S(C)(=O)=O)cc1 (centres undefined)	Nrf2 block 6.51µM (no result: ClpP mod) | FLuc counter 3 inactive | A549 tox-2 inactive | ARE-Fluc inh 18.4µM
COc1ccc([C@H]2CC(=O)C=C(c3ccnc4ccc(Cl)cc34)C2)cc1	Nrf2 block 7.31µM (no result: miR-21 FLuc) | FLuc counter 3 inactive | A549 tox-2 inactive | ARE-Fluc inh 8.2µM
O=C1c2ccc(Oc3ccc([N+](=O)[O-])cc3)cc2C(=O)N1CCCO	Nrf2 block 4.11µM (no result: ClpP mod) | FLuc counter 3 inactive | A549 tox-2 inactive | ARE-Fluc inh inconclusive
Cc1cc(C)cc(C(=O)Nc2ccc(-c3cn4cccnc4n3)cc2)c1	Nrf2 block 9.2µM (no result: TCR act) | FLuc counter 3 inactive | A549 tox-2 inactive | ARE-Fluc inh inconclusive
CCCC(=O)Nc1ccc(-c2cn3cccnc3n2)cc1	none (no result: ClpP mod)
C=CCn1c(C)cc(-c2csc(NC(=O)C3CCN(c4ncnc5sc(C)c(C)c45)CC3)n2)c1C	none (no result: miR-21 FLuc)
COc1ccc(-c2csc(NC(=O)C3CCN(c4ncnc5sc(C)c(C)c45)CC3)n2)cc1OC	Nrf2 block 4.11µM (no result: miR-21 FLuc, ClpP mod) | FLuc counter 3 inactive | A549 tox-2 inactive | ARE-Fluc inh 6.51µM
COc1ccccc1-n1c(/C=C/c2c(C)n(C)c3ccccc23)nc2ccccc2c1=O	Nrf2 block inconclusive (no result: TCR act)
COc1ccccc1NC(=O)c1ccc(NC(=O)COC(=O)c2cccnc2Cl)cc1	none (no result: miR-21 FLuc)
COc1cc(Cl)c(C)cc1NC(=O)c1cnc(N2CCCCC2)c2ccccc12	ClpP mod inconclusive (no result: Nrf2 block, TCR act)
c1ccc(CNc2ncnc3ccccc23)cc1	Nrf2 block 4.61µM | FLuc counter 3 inactive | A549 tox-2 inactive | ARE-Fluc inh 6.51µM
COc1cc2ncnc(NCc3ccccc3)c2cc1OC	Nrf2 block inconclusive
O=C(O)c1ccc(-c2nc(-c3ccccc3)c(-c3cccs3)[nH]2)cc1	none (no result: ClpP mod)

High-throughput results as filed in PubChem BioAssay.
